# Values quoted from earlier work as cited in patent US20190376142A1, “METHOD TO DISTINGUISH TUMOR SUPRESSIVE FOXO ACTIVITY FROM OXIDATIVE STRESS” (KONINKLIJKE PHILIPS N.V., priority 2016, published 2019).
# System: HER2-positive breast cancer patients
# Conditions: HER2-positive breast cancer patients treated with Trastuzumab; cited from earlier work
substance,measurement,value
Trastuzumab,initial response rate,26%
